Earlier results as cited in paper PMC10382406, “Head-to-head comparison of different classes of FAP radioligands designed to increase tumor residence time: monomer, dimer, albumin binders, and small molecules vs peptides” (European Journal of Nuclear Medicine and Molecular Imaging, 2023).

Conditions: same methodology; cited from earlier work

[^177Lu]Lu-DOTA-TATE
Estimated absorbed dose to the kidneys: 2.13E-01 mGy/MBq | Red marrow dose: 1.25E-03 mGy/MBq
